Test results from PubChem BioAssay AID686970 (National Center for Advancing Translational Sciences (NCATS), 2013).
The entries are a selection whose mix differs from that of the whole data set. Records with an inconclusive call do not appear. Activity calls are given as the source filed them. Calls follow the shape of the dose curve; as a rule, active = well fitted cell-killing curve with a large enough effect; inconclusive = small, poorly fitted or top-dose-only effect, or effect the other way; inactive = flat fitted curve, though single readings scatter.

Test: qHTS for induction of synthetic lethality in tumor cells producing 2HG: qHTS for the HT-1080-NT fibrosarcoma cell line;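 also: NT is the 2HG producing partner of a matched IDH1 knockdown line; 0% = DMSO-treated cells and -100% = media-only wells without cells; nearly all actives have a fitted effect of over 55% in size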
Conditions: HT-1080-NT fibrosarcoma viability, CellTiter-Glo ATP luminescence, 48 h; at 46.1 µM (top of the series)

| SMILES | activity, negative = less viability |
| --- | --- |
| CCC(=O)N(c1ccccc1)C1(COC)CCN(CCc2cccs2)CC1 | inactive: -11.1% |
| CCC(=O)N(c1ccccc1)C1(COC)CCN(CCn2nnn(CC)c2=O)CC1 | inactive: 8.72% |
